Columns and labels:
[1] = target: porcine trypsin (porcine) (UniProt P00761); test: chromogenic (S-2251) amidolytic inhibition assay, trypsin 50 nM
human plasmin (human) = human plasmin (human) (UniProt P00747); test: chromogenic (S-2251) amidolytic inhibition assay, plasmin 30 nM

Ki [1] [nM] | Ki (human plasmin (human)) [nM] | Substance
5 |  | bovine pancreatic trypsin inhibitor (BPTI) (from UniProt P00974 36-93)
 | 0.75 | bovine pancreatic trypsin inhibitor (BPTI) (from UniProt P00974 36-93) (other; other documents disagree on this pair)

Source: patent US20090099087A1 (STC UNM, published 2009)
